Patent publication US5624941A, “Pyrazole derivatives, method of preparing them and pharmaceutical compositions in which they are present” (Sanofi, priority 1992, dated 1997)

Chains of the proteins cited; added tags and fusions are not shown.
UniProt P20272, whole entry: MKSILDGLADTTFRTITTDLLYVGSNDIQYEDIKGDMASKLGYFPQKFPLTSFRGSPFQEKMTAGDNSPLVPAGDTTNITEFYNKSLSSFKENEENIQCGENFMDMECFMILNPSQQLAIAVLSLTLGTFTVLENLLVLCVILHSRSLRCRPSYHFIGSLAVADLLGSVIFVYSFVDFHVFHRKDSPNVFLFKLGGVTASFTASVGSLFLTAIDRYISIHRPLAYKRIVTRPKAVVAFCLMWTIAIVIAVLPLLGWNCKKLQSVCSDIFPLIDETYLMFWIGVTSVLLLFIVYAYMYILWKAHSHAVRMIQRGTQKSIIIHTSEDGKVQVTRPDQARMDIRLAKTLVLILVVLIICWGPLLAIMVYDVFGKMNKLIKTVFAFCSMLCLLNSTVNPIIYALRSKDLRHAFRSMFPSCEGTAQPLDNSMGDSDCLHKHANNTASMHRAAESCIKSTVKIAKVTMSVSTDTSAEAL

Target: central cannabinoid receptors (Rattus norvegicus, UniProt P20272)
Settings: compound or one of its pharmaceutically acceptable salts

Cc1c(C(=O)NN2CCCCC2)nn(-c2ccc(Cl)cc2Cl)c1-c1ccc(Cl)cc1 [N-piperidino-5-(4-chlorophenyl)-1-(2,4-dichlorophenyl)-4-methyl-pyrazole-3-carboxamide]
affinity for the central cannabinoid receptors: very good affinity
